The numbers were not newly measured in US20110171714A1, “CRYSTAL STRUCTURE OF TAK1-TAB1” (VERTEX PHARMACEUTICALS INCORPORATED, priority 2005, published 2011), which cites them from elsewhere.

The data set concerns the target T1, TAK1 (Homo sapiens, UniProt O43318).
T1 sequence (O43318 1-606): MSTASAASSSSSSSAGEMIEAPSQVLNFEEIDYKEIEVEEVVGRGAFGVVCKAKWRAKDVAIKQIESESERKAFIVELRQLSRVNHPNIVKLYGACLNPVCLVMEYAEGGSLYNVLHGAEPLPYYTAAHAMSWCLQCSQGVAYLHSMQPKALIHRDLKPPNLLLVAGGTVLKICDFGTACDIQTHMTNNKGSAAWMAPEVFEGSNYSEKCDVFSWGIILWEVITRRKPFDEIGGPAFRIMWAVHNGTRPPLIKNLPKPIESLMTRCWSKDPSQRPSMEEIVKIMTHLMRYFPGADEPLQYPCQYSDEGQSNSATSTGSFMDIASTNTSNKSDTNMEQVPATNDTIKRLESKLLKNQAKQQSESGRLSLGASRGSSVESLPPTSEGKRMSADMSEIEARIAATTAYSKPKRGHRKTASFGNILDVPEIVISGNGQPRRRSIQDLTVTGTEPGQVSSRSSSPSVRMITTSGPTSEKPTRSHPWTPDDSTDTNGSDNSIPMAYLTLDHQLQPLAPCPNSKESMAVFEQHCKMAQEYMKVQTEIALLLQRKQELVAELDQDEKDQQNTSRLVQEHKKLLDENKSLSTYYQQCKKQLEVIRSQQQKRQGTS
T1 sequence (Q15750 1-504 partner): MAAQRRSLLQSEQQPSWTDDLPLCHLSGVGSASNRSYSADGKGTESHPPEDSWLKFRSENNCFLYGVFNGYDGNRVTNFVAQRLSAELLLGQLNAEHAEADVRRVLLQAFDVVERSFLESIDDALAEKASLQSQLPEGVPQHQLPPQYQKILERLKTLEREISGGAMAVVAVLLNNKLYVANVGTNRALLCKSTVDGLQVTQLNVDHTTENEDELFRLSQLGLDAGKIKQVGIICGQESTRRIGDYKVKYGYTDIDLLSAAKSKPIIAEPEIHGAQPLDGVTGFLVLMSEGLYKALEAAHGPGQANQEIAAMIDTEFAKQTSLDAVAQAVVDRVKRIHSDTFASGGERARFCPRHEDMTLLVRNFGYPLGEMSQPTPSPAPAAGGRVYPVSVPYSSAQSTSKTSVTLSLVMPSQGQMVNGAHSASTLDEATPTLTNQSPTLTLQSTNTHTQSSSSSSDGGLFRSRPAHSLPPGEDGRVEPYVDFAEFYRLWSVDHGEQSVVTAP
The following applies: natural inhibitor of TAK1; cited from earlier work.

Structures are written as SMILES.

As usually defined, the IC50 is the concentration that inhibits the measured activity by half. For `COc1cc(O)c2c(c1)/C=C/C[C@H](O)[C@H](O)C(=O)/C=C\C[C@H](C)OC2=O` [5Z-7-oxozeaenol], the IC50 was 8 nM.
